# Measurements taken from patent US4207343A, “1-Phenyl-3-(substituted phenoxy)propylamines” (priority 1978, dated 1980).
# System: uptake of serotonin by platelets
# Settings: human platelet-rich plasma; estimated value
smiles,measurement,value
"CNCCC(Oc1ccc(C(F)(F)F)cc1)c1ccccc1 (stereo not shown) [fluoxetine, N-methyl 3-(p-trifluoromethylphenoxy)-3-phenylpropylamine, reference compound]","estimated IC50, serotonin uptake by platelets",22 nmol
